Target: T1, Mtb Lpd (Mycobacterium tuberculosis, UniProt P9WHH9)
T1 construct: made in house
Experiment: Lpd enzyme assay (spectrophotometric, DTNB, lipoamide, NADH)
Type: biochemical
Protocol: The Lpd enzyme assay was performed at a CRO with a previously reported protocol.[9],[11] Briefly, the Lpd activity was measured by a spectrophotometric assay with DTNB, lipoamide, and NADH. Final concentrations of components in the reaction mixture were as follows: 125 μM NADH, 125 μM DTNB, 40 μM NAD+, 75 μM lipoamide in 25 mM potassium phosphate, and 1 mM EDTA pH 7.0. Compounds were tested initially at 10 μM. Compounds showing significant inhibition at 10 μM were tested in dose–response from 100 to 0.005 μM by serial dilutions. Curves were fit, and IC50 values were calculated using Prism dose–response inhibition analysis (four-parameter fit).

By UniProt entry, the sequences of proteins in these tests, tags left out. Where a name states a change or a piece, a line headed by the entry shows the natural chain unless it says otherwise.
UniProt P9WHH9: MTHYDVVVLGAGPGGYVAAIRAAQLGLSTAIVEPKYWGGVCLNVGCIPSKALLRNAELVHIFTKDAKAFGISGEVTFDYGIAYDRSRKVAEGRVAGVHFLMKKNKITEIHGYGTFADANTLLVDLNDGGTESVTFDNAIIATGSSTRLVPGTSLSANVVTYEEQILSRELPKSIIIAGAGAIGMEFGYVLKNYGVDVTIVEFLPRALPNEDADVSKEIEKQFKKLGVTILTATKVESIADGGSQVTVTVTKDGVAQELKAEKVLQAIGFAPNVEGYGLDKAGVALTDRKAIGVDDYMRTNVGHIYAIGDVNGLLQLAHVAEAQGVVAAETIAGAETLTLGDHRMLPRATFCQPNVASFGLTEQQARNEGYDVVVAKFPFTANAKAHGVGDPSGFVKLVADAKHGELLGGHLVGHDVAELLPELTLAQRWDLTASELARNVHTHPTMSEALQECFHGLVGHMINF

Row | Compound | IC50
1 | CC(=O)Nc1cccc(NC(=O)CN(C)S(=O)(=O)c2cc(C)cc(C(F)F)c2)c1 [1 (TDI-13537)] | 0.16 µM
2 | Cc1cc(S(=O)(=O)N2CCC[C@H]2C(=O)Nc2ccn(C)c(=O)c2)c2[nH]ncc2c1 [TDI-011002] | 0.051 µM
